Experimental data published in patent US7381400B2, “Injection of a radioactive dye for sentinel lymph node identification” (Board of Supervisors of Louisiana State University And …, priority 2004, dated 2008).

What was measured:
[1] = rabbits; for radioactivity measured in the right paw (the site of injection), mean level: FIG. 1
[2] = breast cancer patients, expected
[3] = mini-pigs, subcutaneous injection of the anterior thigh, expected

With “^125I-3,7-bisdimethylaminophenazathionine [^125I-methylene blue]” the “transit to regional lymph nodes and systemic biodistribution” value [1] was “rapid transit of ^125I-methylene blue to regional lymph nodes with limited systemic biodistribution”, the “radioactivity measured in the right paw (the site of injection), mean level” value ([1]; 1 ml 1 mCi/ml in right hind paw, 15 min) was 1.6 million and the “radioactivity in the lymph node, in vivo and in vitro readings, highest readings (average)” value ([1]; 15 min post-injection, FIG. 2 and FIG. 3) was 1 million. For the same substance, the “radioactivity measured in the right paw (the site of injection), mean level” value ([1]; 48 hr) was 1.4 million, the “right groin radioactivity levels” value ([1]; 48 hr, FIG. 8) was 60,000 CPM and the “right groin radioactivity levels, course” value ([1]; FIG. 8) was “increased over time until 8 hr”. For the same substance, the “background radioactivity levels in the neck” value ([1]; all time periods to 48 hr, FIG. 4) was “less than 100,000 CPM”, the “radioactivity in the left paw” value ([1]; all time periods to 48 hr, FIG. 5) was “less than 100,000 CPM” and the “selective uptake in stomach, spleen, liver, ovary or testes, heart, lungs, or thyroid” value ([1]; biodistribution) was “no selective uptake”. For the same substance, the radioactivity in blood ([1]; blood (0.1 ml), all time periods to 48 hr, FIG. 6) was “less than 100,000 CPM”, the “radioactivity in the lymph node, in vivo and in vitro readings” value ([1]; declined over the 48 hr) was “about 100,000 CPM” and the “radioactivity in the kidney” value ([1]; from 2 hr to 8 hr, then a fall at 24 hr and 48 hr, FIG. 7) was “gradual increase”. For the same substance, the “time for radioactivity to reach the node” value ([1]; popliteal nodes) was no more than 15 min, the “travel to the lymph nodes compared with ^99mTc sulfur colloid” value [2] was “faster” and the “time for radioactivity to reach the node” value [3] was no more than 15 min.

Where two headings read alike, the source gives them in different places.
